Measured values: PubChem BioAssay AID720643 (The Scripps Research Institute Molecular Screening Center, 2013)
Calls of active or inactive are those of the source.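 How the source made its calls: active means EC50 of 10 µM or lower; inactive means EC50 above 10 µM.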

Protein sequences, listed by entry. Tags and fused reporters are not part of them.
UniProt P35363, whole entry, looked up: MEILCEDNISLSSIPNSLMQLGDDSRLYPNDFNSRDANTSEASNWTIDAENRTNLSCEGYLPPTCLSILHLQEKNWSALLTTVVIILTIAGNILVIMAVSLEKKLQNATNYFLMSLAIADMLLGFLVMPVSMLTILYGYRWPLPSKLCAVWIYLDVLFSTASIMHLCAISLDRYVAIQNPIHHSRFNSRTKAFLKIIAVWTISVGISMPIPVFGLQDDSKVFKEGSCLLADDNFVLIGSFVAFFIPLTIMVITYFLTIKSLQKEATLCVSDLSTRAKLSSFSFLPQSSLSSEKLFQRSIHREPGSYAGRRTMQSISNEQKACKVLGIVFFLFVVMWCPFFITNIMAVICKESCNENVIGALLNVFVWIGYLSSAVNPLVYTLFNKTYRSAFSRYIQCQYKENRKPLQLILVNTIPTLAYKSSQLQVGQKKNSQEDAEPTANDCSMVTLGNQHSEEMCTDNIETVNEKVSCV

Target: 5-hydroxytryptamine receptor 2A (Mus musculus) (UniProt P35363)
Assay: mouse HTR2A agonist potency, beta-arrestin, late-stage follow-up, cell-based, luminescence, CHO-K1, powder samples, dose response (AID 720643)
Settings: CHO-K1 mHTR2A beta-arrestin PathHunter luminescence

EC50 | SMILES
959 nM | CCCN1C[C@H](CSC)C[C@@H]2c3cccc4[nH]cc(c34)C[C@H]21
inactive: > 76100 nM | CC(CCc1ccc(O)cc1)NCCc1ccc(O)c(O)c1 (configuration not stated)
